Shown are actives, neighbours in structure and some others; about 16% of the full set was active somewhere.
TDP1 inh – blocks human tyrosyl-DNA phosphodiesterase 1; Q9NUW8; recombinant TDP1, AlphaScreen DNA substrate cleavage; Potency, µM (top dose mostly 130 µM), usual class: inhibitors; hit rate 0.28% among 350,000; AID 485290; further: nearly all actives have a fitted effect of over 40% in size
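Steps: enzyme plus compound, 15 min RT; add biotin/phosphotyrosine-FITC oligonucleotide (15 nM final), react 5 min; add donor/acceptor beads (10 ug/ml final), 10 min; read AlphaScreen. Tdp1 at 1 nM final.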
uPA surface inh – blocks generation of uPA at the cell surface. hit rate 0.31% among 330,000. Potency, µM (series often up to 38.3 µM), actives largely listed as inhibitors. cell surface uPA generation assay, qHTS. AID 540303; active means well fitted inhibition curve with a large enough effect; inconclusive means small, poorly fitted or top-dose-only effect; inactive means no such curve, though single readings can be large or run the other way; tested in mouse RAW 264.7 cells; further: nearly all actives have a fitted effect of over 55% in size
miR-21 reporter – raises the signal of a miR-21 reporter | Potency, µM (doses to about 38.3 µM) | HeLa miR-21 FLuc reporter, luciferase, 48 h | AID 2288 | 340,000 tested, under 10 active; active = well fitted rising curve with a large enough effect; inconclusive = small, poorly fitted or top-dose-only effect; inactive = no such curve, though single readings can be large or run the other way;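 also: miR-21 action dims this reporter so a rising signal means less miR-21 action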
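Using DMEM plus 10% FBS, HeLa miR-21-FLuc cells are incubated with test compounds (final up to about 40uM) for 48 hours; firefly luciferase signal is then imaged following reagent-mediated lysis.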
DT40 TDP1 no CPT – qHTS for Inhibitors of human tyrosyl-DNA phosphodiesterase 1 (TDP1): qHTS in cells in absence of CPT; DT40 Tdp1-/- hTDP1 cells, no CPT, ATP luminescence, 48 h; Potency, µM (highest dose often 46.2 µM), usual class: inhibitors; hit rate 15% among 420,000; AID 686978, 2013; further: nearly all actives have a fitted effect of over 55% in size
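Chicken DT40 Tdp1-/- cells complemented with human TDP1, screened without camptothecin (DMSO vehicle only), 400 cells/well. Compounds pin-transferred, cells incubated at 37 °C for at least 48 hr. Growth read as ATP-dependent luminescence (CellTiter-Glo, 30 min at RT).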
TDP1 cell CPT – growth inhibition of DT40 Tdp1-/-;hTDP1 cells with camptothecin (screen for TDP1 inhibitors); Potency, µM (top dose mostly 46.2 µM), most hits filed as inhibitors; chicken DT40 Tdp1-/-;hTDP1 cells + 20 nM CPT, ATP luminescence, 48 h; hit rate 12% among 420,000; further: nearly all actives have a fitted effect of over 55% in size
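Chicken DT40 Tdp1-/- cells stably complemented with human TDP1 were seeded at 400 cells/well in medium containing 20 nM camptothecin, exposed to pin-transferred compounds, and grown at 37 °C for at least 48 hr. Viability was read as ATP luminescence.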
Each line names hits and unclear results; the compound was inactive in the other large screens. Unless noted, the call rests on the fitted dose curve; in most records, active means well fitted curve in the direction sought with a large enough effect; inconclusive means small, poorly fitted or top-dose-only effect, or another doubt; inactive means no such curve, though single readings can be large; an effect the other way counts as inactive or inconclusive.

CCOC(=O)C1CCCN(C(=O)c2cc(COc3ccc(C)nc3)on2)C1 (centres undefined)	DT40 TDP1 no CPT inconclusive, TDP1 cell CPT inconclusive
COCCC1CCCCN1C(=O)c1cc(COc2ccc(C)nc2)on1 (centres undefined)	uPA surface inh inconclusive, DT40 TDP1 no CPT 23.1µM, TDP1 cell CPT 20.6µM
COCCCC1CCN(C(=O)c2cc(COc3ccc(C)nc3)on2)CC1	uPA surface inh inconclusive, DT40 TDP1 no CPT 10.3µM, TDP1 cell CPT 18.4µM
CCC1CCCCN1C(=O)c1cc(COc2ccc(-n3cncn3)cc2)on1 (centres undefined)	DT40 TDP1 no CPT 16.4µM, TDP1 cell CPT 18.4µM
O=C(COC(=O)C1CSC2(c3ccc(F)cc3)CCC(=O)N12)NC(=O)NC1CCCC1 (centres undefined)	none
CC(=O)N1CCCc2cc(S(=O)(=O)N(CCN(C)C)Cc3ccccc3)ccc21	none (no result: uPA surface inh)
CC(=O)N1CCCc2cc(S(=O)(=O)N(C)CC(=O)Nc3ccc(F)c(Cl)c3)ccc21	miR-21 reporter inconclusive, DT40 TDP1 no CPT 20.6µM, TDP1 cell CPT 10.3µM (no result: uPA surface inh)
CC(=O)N1CCCc2cc(S(=O)(=O)N(C)Cc3ccccc3)ccc21	DT40 TDP1 no CPT 20.6µM, TDP1 cell CPT inconclusive
CCc1cccc(NC(=O)CN(C)S(=O)(=O)c2ccc3c(c2)CCCN3C(C)=O)c1	DT40 TDP1 no CPT inconclusive, TDP1 cell CPT 20.6µM (no result: uPA surface inh)
COc1ccc(C/C(C)=N\NC(=O)c2c[nH]c3ccccc23)cc1OC	none
Cc1ncc2c(c1CNC(=O)c1ccc3c(c1)OCO3)CCN(C(=O)c1cc3ccccc3o1)C2	DT40 TDP1 no CPT inconclusive (no result: TDP1 inh, uPA surface inh, miR-21 reporter)
CCCNC(=O)NC1CCCCCCC1	none
CC(C)(C)N1C(=O)[C@@H]2[C@H]3C(=CC[C@H]2C1=O)C(=O)[C@H]1O[C@H]1[C@H]3O	none (no result: uPA surface inh, miR-21 reporter, DT40 TDP1 no CPT, TDP1 cell CPT)
O=C(CSc1nnc(-c2cccc(F)c2)o1)N1CCCC1	none (no result: TDP1 inh)
C/C(CC(=O)Nc1ccc2c(c1)OCCO2)=N\NC(=O)COc1cccc(C)c1	none (no result: TDP1 inh)
CCN(CC)C(=O)[C@H]1CC(CC(=O)NCC23CC4CC(CC(C4)C2)C3)C(=O)N2CCc3c([nH]c4ccc(OC)cc34)[C@]12C (some centres undefined)	uPA surface inh inconclusive, DT40 TDP1 no CPT 13µM, TDP1 cell CPT 20.6µM (no result: miR-21 reporter)
CC(C)(C)NC(=O)CC1C[C@H](C(=O)N2CCCCC2)[C@@]2(C)c3[nH]c4ccccc4c3CCN2C1=O (some centres undefined)	DT40 TDP1 no CPT inconclusive (no result: miR-21 reporter)
C[C@]12c3[nH]c4ccccc4c3CCN1C(=O)C(CC(=O)NCC13CC4CC(CC(C4)C1)C3)C[C@@H]2C(=O)N1CCCCC1 (some centres undefined)	uPA surface inh inconclusive, DT40 TDP1 no CPT 25.9µM, TDP1 cell CPT 20.6µM (no result: miR-21 reporter)
CCN(CC)C(=O)[C@H]1CC(CC(=O)NCCN2CCOCC2)C(=O)N2CCc3c([nH]c4ccc(OC)cc34)[C@]12C (some centres undefined)	none (no result: miR-21 reporter)
C[C@]12c3[nH]c4ccccc4c3CCN1C(=O)C(CC(=O)NCC13CC4CC(CC(C4)C1)C3)C[C@@H]2C(=O)N1CCOCC1 (some centres undefined)	DT40 TDP1 no CPT 23.1µM, TDP1 cell CPT 16.4µM (no result: miR-21 reporter)
COCCCNC(=O)CC1C[C@H](C(=O)N2CCOCC2)[C@@]2(C)c3[nH]c4ccccc4c3CCN2C1=O (some centres undefined)	none (no result: miR-21 reporter)
COc1ccc2[nH]c3c(c2c1)CCN1C(=O)C(CC(=O)NCCC2=CCCCC2)C[C@H](C(=O)N2CCCCC2)[C@@]31C (some centres undefined)	uPA surface inh inconclusive, DT40 TDP1 no CPT 18.4µM, TDP1 cell CPT 23.1µM (no result: miR-21 reporter)
COC(=O)[C@@H](NC(=O)O[C@H]1C(=O)c2ccc(OC)cc2O[C@@H]1c1ccc2c(c1)OCO2)C(C)C	none (no result: uPA surface inh, DT40 TDP1 no CPT, TDP1 cell CPT)
COc1ccc2[nH]c3c(c2c1)CCN1C(=O)C(CC(=O)NCC24CC5CC(CC(C5)C2)C4)C[C@H](C(=O)N2CCCCC2)[C@@]31C (some centres undefined)	uPA surface inh inconclusive, DT40 TDP1 no CPT 18.4µM, TDP1 cell CPT inconclusive (no result: miR-21 reporter)
CC(C)N(C(=O)[C@H]1CC(CC(=O)NCC23CC4CC(CC(C4)C2)C3)C(=O)N2CCc3c([nH]c4ccccc34)[C@]12C)C(C)C (some centres undefined)	DT40 TDP1 no CPT 23.1µM, TDP1 cell CPT 13µM (no result: miR-21 reporter)
CC(C)N(C(=O)[C@H]1C[C@H](CC(=O)NCC23CC4CC(CC(C4)C2)C3)C(=O)N2CCc3c([nH]c4cc(-c5ccco5)ccc34)[C@]12C)C(C)C	DT40 TDP1 no CPT inconclusive, TDP1 cell CPT inconclusive (no result: miR-21 reporter)
COc1ccc2[nH]c3c(c2c1)CCN1C(=O)C(CC(=O)NCCN2CCOCC2)C[C@H](C(=O)N2CCCCC2)[C@@]31C (some centres undefined)	none (no result: miR-21 reporter)
NC(CCc1ccccc1)c1csc(NC(=O)NCC2CCCCC2)n1 (centres undefined)	DT40 TDP1 no CPT 14.6µM, TDP1 cell CPT 14.6µM (no result: TDP1 inh, uPA surface inh, miR-21 reporter)
COc1ccc(Cc2nc(C(=O)Nc3ccc(F)cc3)cs2)cc1	DT40 TDP1 no CPT inconclusive
COc1ccc(CC(N)c2csc(NC(=O)Nc3ccc(F)cc3)n2)cc1 (centres undefined)	DT40 TDP1 no CPT 13µM, TDP1 cell CPT 23.1µM (no result: TDP1 inh, uPA surface inh, miR-21 reporter)
COc1cc(NC(=O)Nc2nc(C(N)CCc3ccccc3)cs2)cc(OC)c1OC (centres undefined)	DT40 TDP1 no CPT 7.31µM, TDP1 cell CPT inconclusive (no result: TDP1 inh, uPA surface inh, miR-21 reporter)
COc1ccc(OC)c(NC(=O)Nc2nc(C(N)CCc3ccccc3)cs2)c1 (centres undefined)	DT40 TDP1 no CPT 9.2µM, TDP1 cell CPT 7.31µM (no result: TDP1 inh, uPA surface inh, miR-21 reporter)
Cc1cccc(CNc2ccnc(-c3ccc(C(=O)N(C)C)cc3)n2)c1	DT40 TDP1 no CPT inconclusive, TDP1 cell CPT inconclusive (no result: uPA surface inh, miR-21 reporter)
Cc1ccccc1C(=O)Nc1cccc(OCc2cc(=O)n3c(C)csc3n2)c1	none (no result: uPA surface inh)
COc1ccc(CC(N)c2csc(NC(=O)Nc3cc(OC)ccc3OC)n2)cc1 (centres undefined)	DT40 TDP1 no CPT 5.8µM, TDP1 cell CPT 5.17µM (no result: TDP1 inh, uPA surface inh, miR-21 reporter)
Cc1ccccc1NC(=O)c1ccc2c(O)c(S(=O)(=O)c3ccccc3)c(=O)[nH]c2c1	none
CCN(Cc1ccccc1)C(=O)CN1C(=O)COc2ccc(S(=O)(=O)N3CCCCCC3)cc21	DT40 TDP1 no CPT 23.1µM, TDP1 cell CPT 20.6µM
CC1CCN(S(=O)(=O)c2ccc3c(c2)N(CC(=O)N(C)Cc2ccccc2)C(=O)CO3)CC1	DT40 TDP1 no CPT 20.6µM, TDP1 cell CPT inconclusive (no result: uPA surface inh)
CCN(Cc1ccccc1)C(=O)CN1C(=O)COc2ccc(S(=O)(=O)N(CC)CC)cc21	DT40 TDP1 no CPT inconclusive, TDP1 cell CPT 23.1µM (no result: uPA surface inh)
CCN(CC)S(=O)(=O)c1ccc2c(c1)N(CC(=O)N(C)Cc1ccccc1)C(=O)CO2	DT40 TDP1 no CPT 25.9µM, TDP1 cell CPT inconclusive (no result: uPA surface inh)

High-throughput results from PubChem.
